The source of these data is ChEMBL document CHEMBL1152978 (J Med Chem, 2009).

Molecules are shown by their SMILES.

The first series deals with Mus musculus. Kind of series: Toxicity in Swiss mouse assessed as occurrence of mydriasis at 30 mg/kg, ip up to 24 hrs. Conditions: in vivo.
Turning to `O=C(O[C@H]1C[N+]2(CCc3ccccc3)CCC1CC2)C(O)(c1cccs1)c1cccs1.[Br-]`, the Activity entry was “Toxic”.

A further series relates to Mus musculus. In words: Toxicity in Swiss mouse assessed as neurobiological state and occurrence of xerostomia at 30 mg/kg, ip up to 24 hrs. Conditions: in vivo.
In the case of `O=C(O[C@H]1C[N+]2(Cc3ccccc3)CCC1CC2)C(O)(c1cccs1)c1cccs1.[Br-]`, the Activity entry is given as “Non-toxic”. The same measure, in the same setting: the same measure for `CCCCCCC[N+]12CCC(CC1)[C@@H](OC(=O)C1(O)c3ccccc3-c3ccccc31)C2.[Br-]`: “Non-toxic”. On the same count and under the same terms, the same measure for `O=C(O[C@H]1C[N+]2(CCc3ccccc3)CCC1CC2)C(O)(c1cccs1)c1cccs1.[Br-]`: “Non-toxic”; for `CCCCCCC[N+]12CCC(CC1)[C@@H](OC(=O)C(O)(c1cccs1)c1cccs1)C2.[Br-]`: “Non-toxic”.

For `C[N+]12CCC(CC1)[C@@H](OC(=O)C(O)(c1cccs1)c1cccs1)C2.[Br-]`, the Activity entry is “Non-toxic”.
